Some results are limits rather than exact numbers.

Amino acid sequences for entries named in this document (tags omitted). Residues count along the entry.
UniProt P23458, 854-1154 limits assumed: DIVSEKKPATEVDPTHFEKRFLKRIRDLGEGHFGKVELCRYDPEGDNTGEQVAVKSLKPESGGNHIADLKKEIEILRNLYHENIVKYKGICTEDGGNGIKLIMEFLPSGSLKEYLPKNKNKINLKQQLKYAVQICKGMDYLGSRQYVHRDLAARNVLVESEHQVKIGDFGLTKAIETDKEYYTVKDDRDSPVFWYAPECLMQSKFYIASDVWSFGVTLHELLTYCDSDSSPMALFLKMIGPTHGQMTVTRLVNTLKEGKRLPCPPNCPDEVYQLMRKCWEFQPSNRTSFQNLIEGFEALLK

In one test the target is IL-2Rβ (pY510). Put plainly: ITC. (Isothermal titration calorimetry measures the heat released or taken up as one component is titrated into another.)
In another test the target is IL-2Rγ (pY363). Put plainly: ITC.
The target of a further test is JAK3 (pY980). Kind of test: ITC.
The next test deals with IL-2Rγ (pY303). Put plainly: ITC.
For another test, the target named is mIL-2Rβ (pY392). Put plainly: ITC.
A further test concerns the target IL-2Rγ (pY357). Kind of test: ITC.
For another test, the target named is IL-2Rβ (pY358). Kind of test: ITC.
For the next test, the target named is IL-2Rγ (pY325). Put plainly: ITC.
Another test deals with IL-2Rβ (pY338). Put plainly: ITC.
For another test, the target named is JAK1 (Y1034). Kind of test: ITC.
Test [1] concerns the target JAK1 kinase domain (JH1) (Homo sapiens (Human)) (UniProt P23458). Put plainly: cell-based or functional assay.

“hCIS-SH2-BC: recombinant trimeric complex of a human GST-CIS construct (hCIS-SH2) with Elongins B and C (from UniProt Q9NSE2 66-258; Q15370 1-118; Q15369 17-112)”: the IC50 was 6.7 µM in the test with JAK3, greater than 20 µM in the test with TYK2 kinase domain (JH1) and 2.4 µM in the test with JAK2 kinase domain (JH1). Moreover, the dissociation constant Kd was greater than 10 µM with IL-2Rβ (pY510); greater than 10 µM with IL-2Rγ (pY363); 0.8 µM with JAK3 (pY980); greater than 10 µM in the test with IL-2Rγ (pY303); 1.5 µM with mIL-2Rβ (pY392); greater than 10 µM in the test with IL-2Rγ (pY357). For the same substance, the dissociation constant Kd with IL-2Rβ (pY358) was greater than 10 µM; with IL-2Rγ (pY325), greater than 10 µM; with IL-2Rβ (pY338) it was 7 µM; with JAK1 (Y1034) it was greater than 10 µM.

Substance “human CIS lacking the PEST motif (residues 173-202; APEST), trimeric complex with elongin B and elongin C (from UniProt Q9NSE2 1-258; Q15370 1-118; Q15369 17-112)” came in with an IC50, inhibition of the JAK1 kinase domain (JH1) in an in vitro kinase reaction in test [1] of 3320 µM.

In general, IC50 refers to the concentration that gives 50% inhibition. Lower therefore signals inhibition by little substance. Usually Kd stands for the free concentration of one partner at which half of the binding sites on the other are occupied at equilibrium, for simple one-to-one binding.

Values taken from patent US20220267447A1.
